Measured values reported in patent US5624932A (priority 1995, dated 1997).

Tested on: dorsal root ganglion (DRG) neurons

CC(C)C[C@H](NC(=O)[C@H](Cc1ccccc1)NC(=O)CNC(=O)CNC(=O)[C@@H](N)Cc1ccc(O)cc1)C(=O)O
Alteration of action potential duration, opioid at low concentration (< nM): Prolongation | Alteration of action potential duration, opioid at high concentration (μM): Shortening
